{
  "source": "patent US4395969A",
  "about": "(priority 1981, dated 1983)",
  "key": {"[1]": {"system": "threespine stickleback", "assay": "Static bioassay, lethal concentration to threespine stickleback", "assay_type": "in vivo, Gasterosteus aculeatus", "settings": "50 mg/l; 12 h; artesian well water; 10 C"}, "[2]": {"system": "chinook salmon", "assay": "Static bioassay, lethal concentration to chinook salmon", "settings": "50 mg/l; 12 h; artesian well water; 10 C"}},
  "data": [
    {"smiles": "CCOP(=S)(Cl)OCC", "values": [
      {"measurement": "mortality", "setting": "[1]", "value": 100, "unit": "%"},
      {"measurement": "mortality", "setting": "[2]", "value": 0, "unit": "%"}
    ]}
  ]
}
